Measurements: patent US20200261490

Molecular target: recombinant human stanniocalcin 1, C-terminally myc-his-tagged

B1: recombinant human PAPP-A (pregnancy-associated plasma protein-A, pappalysin-1) (protein)
chain: EARGATEEPSPPSRALYFSGRGEQLRLRADLELPRDAFTLQVWLRAEGGQRSPAVITGLYDKCSYISRDRGWVVGIHTISDQDNKDPRYFFSLKTDRARQVTTINAHRSYLPGQWVYLAATYDGQFMKLYVNGAQVATSGEQVGGIFSPLTQKCKVLMLGGSALNHNYRGYIEHFSLWKVARTQREILSDMETHGAHTALPQLLLQENWDNVKHAWSPMKDGSSPKVEFSNAHGFLLDTSLEPPLCGQTLCDNTEVIASYNQLSSFRQPKVVRYRVVNLYEDDHKNPTVTREQVDFQHHQLAEAFKQYNISWELDVLEVSNSSLRRRLILANCDISKIGDENCDPECNHTLTGHDGGDCRHLRHPAFVKKQHNGVCDMDCNYERFNFDGGECCDPEITNVTQTCFDPDSPHRAYLDVNELKNILKLDGSTHLNIFFAKSSEEELAGVATWPWDKEALMHLGGIVLNPSFYGMPGHTHTMIHEIGHSLGLYHVFRGISEIQSCSDPCMETEPSFETGDLCNDTNPAPKHKSCGDPGPGNDTCGFHSFFNTPYNNFMSYADDDCTDSFTPNQVARMHCYLDLVYQGWQPSRKPAPVALAPQVLGHTTDSVTLEWFPPIDGHFFERELGSACHLCLEGRILVQYASNASSPMPCSPSGHWSPREAEGHPDVEQPCKSSVRTWSPNSAVNPHTVPPACPEPQGCYLELEFLYPLVPESLTIWVTFVSTDWDSSGAVNDIKLLAVSGKNISLGPQNVFCDVPLTIRLWDVGEEVYGIQIYTLDEHLEIDAAMLTSTADTPLCLQCKPLKYKVVRDPPLQMDVASILHLNRKFVDMDLNLGSVYQYWVITISGTEESEPSPAVTYIHGSGYCGDGIIQKDQGEQCDDMNKINGDGCSLFCRQEVSFNCIDEPSRCYFHDGDGVCEEFEQKTSIKDCGVYTPQGFLDQWASNASVSHQDQQCPGWVIIGQPAASQVCRTKVIDLSEGISQHAWYPCTISYPYSQLAQTTFWLRAYFSQPMVAAAVIVHLVTDGTYYGDQKQETISVQLLDTKDQSHDLGLHVLSCRNNPLIIPVVHDLSQPFYHSQAVRVSFSSPLVAISGVALRSFDNFDPVTLSSCQRGETYSPAEQSCVHFACEKTDCPELAVENASLNCSSSDRYHGAQCTVSCRTGYVLQIRRDDELIKSQTGPSVTVTCTEGKWNKQVACEPVDCSIPDHHQVYAASFSCPEGTTFGSQCSFQCRHPAQLKGNNSLLTCMEDGLWSFPEALCELMCLAPPPVPNADLQTARCRENKHKVGSFCKYKCKPGYHVPGSSRKSKKRAFKTQCTQDGSWQEGACVPVTCDPPPPKFHGLYQCTNGFQFNSECRIKCEDSDASQGLGSNVIHCRKDGTWNGSFHVCQEMQGQCSVPNELNSNLKLQCPDGYAIGSECATSCLDHNSESIILPMNVTVRDIPHWLNPTRVERVVCTAGLKWYPHPALIHCVKGCEPFMGDNYCDAINNRAFCNYDGGDCCTSTVKTKKVTPFPMSCDLQGDCACRDPQAQEHSRKDLRGYSHG
  % of total 125I-IGFBP-4 cleaved by PAPP-A after 120 min: only ˜15% of the total IGFBP-4 was cleaved when STC1 was present
